In article PMC8640019 (Nature Communications, 2021):
Where “and” joins values, the source holds several entries; their conditions need not be identical. Equal values may be shown once.

B1: Cullin5 N-terminal domain (Cul5^1-384) (domain or fragment)
chain: MATSNLLKNKGSLQFEDKWDFMRPIVLKLLRQESVTKQQWFDLFSDVHAVCLWDDKGPAKIHQALKEDILEFIKQAQARVLSHQDDTALLKAYIVEWRKFFTQCDILPKPFCQLEITLMGKQGSNKKSNVEDSIVRKLMLDTWNESIFSNIKNRLQDSAMKLVHAERLGEAFDSQLVIGVRESYVNLCSNPEDKLQIYRDNFEKAYLDSTERFYRTQAPSYLQQNGVQNYMKYADAKLKEEEKRALRYLETRRECNSVEALMECCVNALVTSFKETILAECQGMIKRNETEKLHLMFSLMDKVPNGIEPMLKDLEEHIISAGLADMVAAAETITTDSEKYVEQLLTLFNRFSKLVKEAFQDDPRFLTARDKAYKAVVNDATIFK

Assays:
Experiment in all cases: ITC; 298 K, Microcal ITC200; 25 mM Hepes pH 7.5, 150 mM NaCl, 2 mM TCEP; typically 12 x 3.25 µL of 240 µM peptide (syringe) into 30 µM SOCS-EloB/C (cell); where a second peptide or Cullin5 NTD stands in the cell the protein was with it beforehand (25 µM SOCS2-EloB/C pre-incubated with 60 µM F3); single-site fit
Conditions in all cases: both partners purified
SOCS2^32-198-EloB/C [1] = target: T1, SOCS2^32-198-EloB/C (human, UniProt O14508 32-198; Q15370 1-118; Q15369 17-112)
T1 construct: human Elongin C, residues 17-112; also called SOCS2-Elo B/C; SOCS2/BC; source: E. coli BL21 (R3), co-expressed with Elongin BC, purified (Glutathione Sepharose, TEV cleavage, SEC); not shown: GST, N-terminal, cleaved; copies: + +

SOCS2^32-198-EloB/C [2] = target: T1, SOCS2^32-198-EloB/C; remark: listed apart in the source
SOCS2-Elo B/C + F3 [3] = target: T2, SOCS2-Elo B/C + F3 (human, UniProt O14508 32-198; Q15370 1-118; Q15369 17-112)
T2 construct: human Elongin C, residues 17-112; F3 peptide; ITC: 25 µM SOCS2-EloB/C pre-incubated with 60 µM F3; SPR: 100 nM SOCS2 with 10 µM F3; also called SOCS2 + F3; SOCS2/F3 complex; not shown: GST, N-terminal, cleaved; copies: + + +

SOCS2-Elo B/C + F3 [4] = target: T2, SOCS2-Elo B/C + F3; remark: listed apart in the source
SOCS2^32-198-EloB/C [5] = target: T1, SOCS2^32-198-EloB/C; remark: listed apart in the source

| Binder | Ka (SOCS2^32-198-EloB/C [1]) | Kd (SOCS2^32-198-EloB/C [1]) | stoichiometry N (SOCS2^32-198-EloB/C [1]) | Kd (SOCS2^32-198-EloB/C [2]) | Kd (SOCS2-Elo B/C + F3 [3]) | Ka (SOCS2-Elo B/C + F3 [4]) | Kd (SOCS2-Elo B/C + F3 [4]) | stoichiometry N (SOCS2^32-198-EloB/C [5]) |
| --- | --- | --- | --- | --- | --- | --- | --- | --- |
| STASTVQYSTVVHSG (phosphotyrosine at 757) [gp130 pY757 peptide] | 176000 M⁻¹ and 169000 M⁻¹ | 5.68 µM and 5.92 µM | 0.45 and 0.263 | 5.8 µM | 0.51 µM | 2.2e+06 M⁻¹ and 1.8e+06 M⁻¹ | 0.56 µM and 0.45 µM | – |
| B1 | – | – | – | – | – | – | – | 0.83 |
